The list shows a part of the results.
T1: LIN28A (human?, UniProt Q9H9Z2 1-209)
T1 sequence: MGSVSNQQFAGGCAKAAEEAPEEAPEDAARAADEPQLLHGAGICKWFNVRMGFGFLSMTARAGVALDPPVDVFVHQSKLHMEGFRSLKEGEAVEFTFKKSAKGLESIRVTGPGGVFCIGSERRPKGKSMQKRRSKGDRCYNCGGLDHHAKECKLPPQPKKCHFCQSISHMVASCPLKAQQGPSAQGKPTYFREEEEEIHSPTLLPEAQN

T2: CIRBP (Homo sapiens, UniProt Q14011 1-172)
T2 sequence: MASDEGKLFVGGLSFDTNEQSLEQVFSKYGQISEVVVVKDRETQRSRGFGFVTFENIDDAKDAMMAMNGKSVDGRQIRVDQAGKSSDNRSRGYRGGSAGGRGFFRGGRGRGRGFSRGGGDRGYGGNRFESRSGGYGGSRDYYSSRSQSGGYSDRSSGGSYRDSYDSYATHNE

T3: DHX36 (Homo sapiens, UniProt Q9H2U1 1-1008)
T3 sequence: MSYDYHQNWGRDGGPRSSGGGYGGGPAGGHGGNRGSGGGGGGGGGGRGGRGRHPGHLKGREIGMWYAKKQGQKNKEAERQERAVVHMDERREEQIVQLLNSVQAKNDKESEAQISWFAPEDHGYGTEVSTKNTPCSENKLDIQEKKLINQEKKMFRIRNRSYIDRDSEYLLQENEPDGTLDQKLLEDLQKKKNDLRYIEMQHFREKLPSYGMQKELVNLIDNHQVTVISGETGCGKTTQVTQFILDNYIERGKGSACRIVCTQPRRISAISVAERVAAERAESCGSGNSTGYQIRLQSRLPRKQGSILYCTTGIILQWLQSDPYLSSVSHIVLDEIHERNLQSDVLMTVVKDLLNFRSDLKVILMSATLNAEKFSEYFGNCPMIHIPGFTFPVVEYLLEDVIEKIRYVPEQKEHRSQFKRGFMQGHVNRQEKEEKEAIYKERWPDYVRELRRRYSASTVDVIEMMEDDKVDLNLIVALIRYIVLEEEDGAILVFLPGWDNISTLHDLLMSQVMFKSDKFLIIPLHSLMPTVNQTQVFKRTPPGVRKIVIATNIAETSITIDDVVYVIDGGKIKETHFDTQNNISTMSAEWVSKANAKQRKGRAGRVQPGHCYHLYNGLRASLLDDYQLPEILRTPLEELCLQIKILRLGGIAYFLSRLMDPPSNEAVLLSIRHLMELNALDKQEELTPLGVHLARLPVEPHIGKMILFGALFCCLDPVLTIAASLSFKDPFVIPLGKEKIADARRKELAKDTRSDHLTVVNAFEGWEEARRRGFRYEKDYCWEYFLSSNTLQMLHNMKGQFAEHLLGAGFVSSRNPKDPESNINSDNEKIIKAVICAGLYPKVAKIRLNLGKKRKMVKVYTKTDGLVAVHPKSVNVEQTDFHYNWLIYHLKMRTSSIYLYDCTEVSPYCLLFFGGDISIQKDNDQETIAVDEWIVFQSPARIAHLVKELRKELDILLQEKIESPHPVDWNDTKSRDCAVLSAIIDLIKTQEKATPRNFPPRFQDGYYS

B1: hsa-mir-5702 (structured_RNA)
RNA: GGGAAGAAAGGCUCAGUGGACGGCGAUUGGUGUACGAAGUUUCAGCUCCAACCUGAAAUCCUUCUGUAGGUUGAGGCUGAAGCUUCGUGCAC
B2: hsa-mir-3659 (structured_RNA)
RNA: GGGAGCUAGUGGCAAGACGUACAUUAAUGGUGUACGAAGUUUCAGCCACGUGCUGCUUGUAUAGACAUGAGGCUGAAGCUUCGUGCAC
B3: hsa-mir-4722 (structured_RNA)
RNA: GGGAAGUGGUCUUUAUAUGUUGUGCGGUGGUGUACGAAGUUUCAGCAGGUUGGCUGGGCCAGGCCUGACCUGCUGAAGCUUCGUGCAC
B4: hsa-mir-627 (structured_RNA)
RNA: GGGAAAUACGCAUAGUGGUUAACCGGACGGUGUACGAAGUUUCAGCAAGAGGAGGUGGUUGUUUUCCUCCUCUUGCUGAAGCUUCGUGCAC
B5: hsa-mir-6875 (structured_RNA)
RNA: GGGACGAGAUUAUAUACGACGCAUUCGUGGUGUACGAAGUUUCAGCAGAAGGCCUAUGGUGAUUUGCAUUCUUGCUGAAGCUUCGUGCAC
B6: hsa-mir-6835 (structured_RNA)
RNA: GGGAAAUGGCCGGAUUACUGUUCACCCUGGUGUACGAAGUUUCAGCGAAGCGAGAUGUUUGUCUAAAGCUGAAGCUUCGUGCAC
B7: NEAT1_ParasoR_ID41 (structured_RNA)
RNA: GGGAAGUAGGCACGCGAAAACUGAGUUAGGUGUACGAAGUUUCAGCGUCUGUAAGAUGAGUUAGGGUGACUUGCUAAUAGACGCUGAAGCUUCGUGCAC
B8: hsa-mir-4480 (structured_RNA)
RNA: GGGACAUGACAGACGAUGGUAUCACGACGGUGUACGAAGUUUCAGCGGCCACCCAGGGAGUAAGUAGCCGCUGAAGCUUCGUGCAC
B9: hsa-mir-8088 (structured_RNA)
RNA: GGGAGAAGUUAGUCGCAUAAGUCAAGAAGGUGUACGAAGUUUCAGCGGUAUGGAUUCUGUUGUUUUGGCAACAUUCUGCUGAAGCUUCGUGCAC
B10: hsa-mir-6879 (structured_RNA)
RNA: GGGACGGAACUUGUGCCACGCGAUUUCUGGUGUACGAAGUUUCAGCGGGAGAGGGGCCCAGCUGACCCUCCUGUCGCUGAAGCUUCGUGCAC
B11: hsa-mir-1264 (structured_RNA)
RNA: GGGAGAGAGCGAAGAUCACAUCGAGCAGGGUGUACGAAGUUUCAGCUUUGUUGAAAGAAUAAAUAAACCAACAAGGCUGAAGCUUCGUGCAC
B12: hsa-mir-376b (structured_RNA)
RNA: GGGACAAGGUUGCGUGGCAGAACGAAAUGGUGUACGAAGUUUCAGCGUUUACGUGAUUCCUGGUUAAUCGCUGAAGCUUCGUGCAC
B13: hsa-mir-23b (structured_RNA)
RNA: GGGAAUGGUGUCGCAUCUGAAAAUUCACGGUGUACGAAGUUUCAGCUGAUUUGUGACUUAAGAUUAAAAUCAGCUGAAGCUUCGUGCAC

Molecular target: T1, LIN28A
Test: FOREST: bead pull-down of RNA structure library v1, barcode microarray; U1A/LIN28A: 20 mM HEPES pH 7.5, 80 mM KCl, 20 mM NaCl, 10% glycerol, 2 mM DTT, 0.1 ug/uL BSA, 4 C; BG4/CIRBP/DHX36: 10 mM Tris-HCl pH 7.5, 100 mM KCl (or LiCl),; high values mean tight binding

Binder	binding signal [z-score]
B1	1.61
B2	1.59
B3	1.59
B4	1.59
B5	1.58
B6	1.57
B7	1.56
B8	1.56
B9	1.55
B10	1.54
B11	1.53
B12	1.5
B13	1.49

Molecular target: T2, CIRBP
Test: as above

Binder	binding signal [z-score]
B1	-1.09
B2	0.0197
B3	2.3
B4	2.36
B5	-0.372
B6	0.947
B7	1.61
B8	2.24
B9	1.25
B10	-0.558
B11	1.3
B12	0.35
B13	-0.358

Molecular target: T3, DHX36
Test: as above

Binder	binding signal [z-score]
B1	-0.0806
B2	0.35
B3	1.83
B4	2.78
B5	0.491
B6	-0.244
B7	-0.17
B8	0.808
B9	1.51
B10	-0.178
B11	0.504
B12	-0.743
B13	-0.323

Source: PMC7723054
